The values that follow come from patent publication US9133235B2, “Macrocyclic antagonists of the motilin receptor for treatment of gastrointestinal dysmotility disorders” (Ocera Therapeutics, Inc., priority 2006, dated 2015).

The chains behind the UniProt entries cited, without tags or fusion partners.
UniProt O43193, whole entry: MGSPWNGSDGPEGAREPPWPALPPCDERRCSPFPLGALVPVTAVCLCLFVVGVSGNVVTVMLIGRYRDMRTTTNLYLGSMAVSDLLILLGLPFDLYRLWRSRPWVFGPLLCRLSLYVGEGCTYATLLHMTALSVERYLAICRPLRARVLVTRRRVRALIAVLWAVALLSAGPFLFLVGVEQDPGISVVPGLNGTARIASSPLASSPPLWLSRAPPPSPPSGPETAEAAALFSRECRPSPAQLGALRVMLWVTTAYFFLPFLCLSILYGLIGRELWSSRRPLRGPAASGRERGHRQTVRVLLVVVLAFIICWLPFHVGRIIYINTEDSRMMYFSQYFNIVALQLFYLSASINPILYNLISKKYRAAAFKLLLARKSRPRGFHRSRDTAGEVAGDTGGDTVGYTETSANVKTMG

The target of data set [1] is T1, human motilin receptor (Homo sapiens, UniProt O43193). Kind of data set: Aequorin functional assay (motilin receptor). To be noted: functional activity, antagonist testing vs motilin 0.5 nM (EC80).
The subject of the next data set is Caco-2 cells. The data set can be described thus: Caco-2 permeability. To be noted: 10 μM, 60 min, 37° C. On the technique in general: Caco-2 monolayers are a common model of the intestinal barrier.
Data set [2] addresses T1, human motilin receptor. The data set can be described thus: Competitive radioligand binding assay (motilin receptor). The note with it: [125I]-motilin competition, membranes of CHO cells with human motilin receptor.
A short description of data set [3]: Pharmacokinetic analysis in rat (i.v., s.c., p.o.).

Compound `CC(C)[C@H]1NC(=O)[C@@H](Cc2cccc(Cl)c2)NCCOc2ccccc2CCCNC(=O)[C@H](Cn2cccn2)NC1=O` returned an IC50 on human motilin receptor [1] below 100 nM. For the same compound, in the data set with Caco-2 cells (apical to basolateral), the “Papp A to B” value is 15 cm/sec × 10^−6. In addition, in the data set on Caco-2 cells (basolateral to apical), the “Papp B to A” value is on record as 17 cm/sec × 10^−6.

For `CC(C)[C@H]1NC(=O)[C@@H](Cc2cccc(Cl)c2)NCCOc2ccccc2CCCNC(=O)[C@H](Cn2ccnc2)NC1=O`, on human motilin receptor [2], the Ki is below 100 nM.

Consider `CC(C)[C@H]1NC(=O)[C@@H](Cc2cccc(F)c2)N(C)[C@@H](C)COc2ccccc2CCCNC(=O)[C@H](CN(C)C)NC1=O`, for which the Ki on human motilin receptor [2] was below 1000 nM.

For `CC(C)[C@H]1NC(=O)[C@@H](Cc2cccc(F)c2)N[C@@H](C)COc2ccccc2CCCNC(=O)[C@H](CO)NC1=O`, on human motilin receptor [2], the Ki was below 100 nM. For the same compound, the results for the “Clearance” value in data set [3] (i.v.) and in data set [3] (s.c.) were 65 mL/min/kg and 42 mL/min/kg, respectively. Also, the “Elimination (t1/2, min)” value was determined as 25 min in data set [3] (i.v., typical dose 2 mg/kg) and 132 min in data set [3] (s.c., typical dose 2 mg/kg). Moreover, on human motilin receptor [1], the IC50 is below 10 nM.

In the case of `CCC[C@@H]1NC(=O)[C@@H](C(C)C)NC(=O)[C@@H](Cc2cccc(F)c2)NC(C(C)C)COc2ccccc2CCCNC1=O` (stereo partly drawn), on human motilin receptor [2], the inhibition constant Ki was below 100 nM. The IC50 on human motilin receptor [1] is below 100 nM.

As for `CCC[C@@H]1NC(=O)[C@@H](C(C)C)NC(=O)[C@@H](Cc2cccc(F)c2)NC(CO)COc2ccccc2CCCNC1=O` (stereo partly drawn), the inhibitory constant (Ki) at human motilin receptor [2] is below 10 nM. At human motilin receptor [1], this compound returned an IC50 below 10 nM.

Regarding `CCC[C@@H]1NC(=O)[C@@H](C(C)C)NC(=O)[C@@H](Cc2cccc(F)c2)N[C@@H](C)COc2c(F)cccc2CCCNC1=O`, the Ki at human motilin receptor [2] is below 100 nM. For the same compound, the “Clearance” value in data set [3] (i.v.) came out at 27 mL/min/kg. Further, the “Elimination (t1/2, min)” value in data set [3] (i.v., typical dose 2 mg/kg) is 55 min; in data set [3] (p.o., typical dose 8 mg/kg, in the presence of 10% beta-cyclodextrin) it was 117 min. In addition, in data set [3] (p.o., in the presence of 10% beta-cyclodextrin), the “Bioavailability (oral)” value was 21%. For the same compound, the IC50 against human motilin receptor [1] was below 10 nM.

Turning to `CCC[C@@H]1NC(=O)[C@@H](C(C)C)NC(=O)[C@@H](Cc2cccc(F)c2)N[C@@H](C)COc2cccc(F)c2CCCNC1=O`, at human motilin receptor [2], the Ki was below 10 nM. Besides, the IC50 at human motilin receptor [1] was below 1 nM.

`CC(C)C1NC(=O)C(Cc2ccc(Cl)cc2)NCCOc2ccccc2CCCNC(=O)C(CN(C)C)NC1=O` (single isomer, unassigned) displayed a Ki at human motilin receptor [2] below 100 nM.

In turn, `CC(C)C1NC(=O)C(Cc2ccc(O)cc2)NCCOc2ccccc2CCCNC(=O)C(CNC(=N)N)NC1=O` (single isomer, unassigned) yielded a Ki at human motilin receptor [2] below 1000 nM.

On to `CC(C)C1NC(=O)C(Cc2cccc(Cl)c2)NCCOc2ccccc2CCCNC(=O)C(CCC(=N)N)NC1=O` (single isomer, unassigned), for which the inhibition constant (Ki) at human motilin receptor [2] is below 100 nM.

With `CC(C)C1NC(=O)C(Cc2cccc(Cl)c2)NCCOc2ccccc2CCCNC(=O)C(CN(C)C)NC1=O` (single isomer, unassigned), the inhibition constant Ki at human motilin receptor [2] was below 100 nM.

As to `CC(C)C1NC(=O)C(Cc2cccc(Cl)c2)NCCOc2ccccc2CCCNC(=O)C(CNC2=NCCN2)NC1=O` (single isomer, unassigned), the inhibitory constant (Ki) on human motilin receptor [2] was below 100 nM.

At human motilin receptor [2] (tested form: TFA), `CC1COc2ccccc2CCCNC(=O)C(CNC(=N)N)NC(=O)C(C(C)C)NC(=O)C(Cc2cccc(Cl)c2)N1` (single isomer, unassigned) came in with an inhibition constant Ki below 1000 nM.

On to `CCCC1NC(=O)C(C(C)C)NC(=O)C(Cc2cc(I)c(O)c(I)c2)NCCOc2ccccc2CCCNC1=O` (single isomer, unassigned), for which the inhibition constant (Ki) on human motilin receptor [2] was below 1000 nM.

The compound `CC(C)C1NC(=O)C(Cc2cccc(C(F)(F)F)c2)NCCOc2ccccc2CCCNC(=O)C(CN(C)C)NC1=O` (single isomer, unassigned) [502a] showed a Ki at human motilin receptor [2] below 10 nM.

The compound `CC(C)C1NC(=O)C(Cc2cccc(C(F)(F)F)c2)NCCOc2ccccc2CCCNC(=O)C(CN(C)C)NC1=O` (single isomer, unassigned) [502b] had an inhibition constant (Ki) on human motilin receptor [2] below 100 nM.

As to `CC(C)C1NC(=O)C(Cc2cccc(C(F)(F)F)c2)NCCOc2ccccc2CCCNC(=O)C(CNC(=N)N)NC1=O` (single isomer, unassigned) [503a], on human motilin receptor [2], the Ki was below 10 nM.

`CC(C)C1NC(=O)C(Cc2cccc(C(F)(F)F)c2)NCCOc2ccccc2CCCNC(=O)C(CNC(=N)N)NC1=O` (single isomer, unassigned) [503b] had a Ki on human motilin receptor [2] below 100 nM.

Compound `CC(C)C1NC(=O)C(Cc2cccc(C(F)(F)F)c2)NCCOc2ccccc2CCCNC(=O)C(CNC(=N)N)NC1=O` (single isomer, unassigned) [503c] displayed an inhibition constant (Ki) on human motilin receptor [2] below 10 nM.

In the case of `CC(C)C1NC(=O)C(Cc2cccc(Cl)c2)NCCOc2ccccc2CCCNC(=O)C(Cn2cccn2)NC1=O` (single isomer, unassigned) [511a], on human motilin receptor [2], the Ki was below 100 nM.

`CC(C)C1NC(=O)C(Cc2cccc(Cl)c2)NCCOc2ccccc2CCCNC(=O)C(Cn2cccn2)NC1=O` (single isomer, unassigned) [511b] came in with a Ki at human motilin receptor [2] below 1000 nM.

On to `CNCC1NC(=O)C(C(C)C)NC(=O)C(Cc2cccc(Cl)c2)NCCOc2ccccc2CCCNC1=O` (single isomer, unassigned) [512a], for which the Ki on human motilin receptor [2] is below 100 nM.

`CNCC1NC(=O)C(C(C)C)NC(=O)C(Cc2cccc(Cl)c2)NCCOc2ccccc2CCCNC1=O` (single isomer, unassigned) [512b] had a Ki at human motilin receptor [2] below 1000 nM.

For the compound `CC1CNC(=O)C(CN(C)C)NC(=O)C(C(C)C)NC(=O)C(Cc2cccc(F)c2)NCCOc2ccccc2C1` (single isomer, unassigned) [515a], on human motilin receptor [2], the inhibition constant Ki is below 10 nM.

Regarding `CC1CNC(=O)C(CN(C)C)NC(=O)C(C(C)C)NC(=O)C(Cc2cccc(F)c2)NCCOc2ccccc2C1` (single isomer, unassigned) [515b], on human motilin receptor [2], the Ki is below 100 nM.

`CC1COc2ccccc2CCCNC(=O)C(CNC(=N)N)NC(=O)C(C(C)C)NC(=O)C(Cc2cccc(Cl)c2)N1` (single isomer, unassigned) [516a] displayed a Ki on human motilin receptor [2] below 10 nM.

Take `CC1COc2ccccc2CCCNC(=O)C(CNC(=N)N)NC(=O)C(C(C)C)NC(=O)C(Cc2cccc(Cl)c2)N1` (single isomer, unassigned) [516b]: at human motilin receptor [2], the Ki is below 100 nM.

`CC1COc2ccccc2CCCNC(=O)C(CC2CC2)NC(=O)C(C(C)C)NC(=O)C(Cc2cccc(F)c2)N1` (single isomer, unassigned) [554a]: on human motilin receptor [2], the Ki was below 10 nM.

Compound `CC1COc2ccccc2CCCNC(=O)C(CC2CC2)NC(=O)C(C(C)C)NC(=O)C(Cc2cccc(F)c2)N1` (single isomer, unassigned) [554b] displayed a Ki at human motilin receptor [2] below 1000 nM.

With `CC1COc2ccccc2CCCNC(=O)C(CC2CC2)NC(=O)C(C(C)C)NC(=O)C(Cc2cccc(F)c2)N1` (single isomer, unassigned) [554c], on human motilin receptor [2], the Ki was below 100 nM.

For `CC1COc2ccccc2CCCNC(=O)C(CC2CC2)NC(=O)C(C(C)C)NC(=O)C(Cc2cccc(F)c2)N1` (single isomer, unassigned) [589a], at human motilin receptor [2], the Ki is below 1000 nM.

In the case of `CC1COc2ccccc2CCCNC(=O)C(CC2CC2)NC(=O)C(C(C)C)NC(=O)C(Cc2cccc(F)c2)N1` (single isomer, unassigned) [589b], the Ki at human motilin receptor [2] is above 1000 nM.

Usually IC50 stands for the concentration needed to halve the response being measured. A high value points to a need for much substance. For orientation: Ki means a dissociation constant, usually derived from enzyme kinetics or from competition with a known ligand.
